Patent publication US10913710B2, “Benzene disulfonamide for the treatment of cancer” (priority 2017, dated 2021)

Key:
[1] = biological target: PDE6δ (Homo sapiens, UniProt O43924); assay: Arl2-mediated displacement of fluorescently labeled inhibitors from PDE6δ (fluorescence polarization); type: binding
Experimental: The purification was followed by size exclusion gel filtration on a Superdex 75 S26/60 column using buffer A (25 mM Tris-HCl, pH 7.5, 150 mM NaCl and 3 mM DTE).

[2] = biological target: PDEδ (Homo sapiens (Human), UniProt O43924); conditions: cited from earlier work

c1ccc(Cn2c(-c3ccc(OC[C@H](C4CCNCC4)n4c(-c5ccccc5)nc5ccccc54)cc3)nc3ccccc32)cc1 [Deltarasin, reference compound]
release from PDE6δ induced by Arl2 [1]: induces release | binding affinity to PDE6δ in vitro [2]: low nanomolar affinity
